Patent US20260384438A1, “PYRROLOPYRIMIDINE CARBOXAMIDES” (published 2026)

Chains of the proteins cited; added tags and fusions are not shown.
UniProt Q15131, whole entry: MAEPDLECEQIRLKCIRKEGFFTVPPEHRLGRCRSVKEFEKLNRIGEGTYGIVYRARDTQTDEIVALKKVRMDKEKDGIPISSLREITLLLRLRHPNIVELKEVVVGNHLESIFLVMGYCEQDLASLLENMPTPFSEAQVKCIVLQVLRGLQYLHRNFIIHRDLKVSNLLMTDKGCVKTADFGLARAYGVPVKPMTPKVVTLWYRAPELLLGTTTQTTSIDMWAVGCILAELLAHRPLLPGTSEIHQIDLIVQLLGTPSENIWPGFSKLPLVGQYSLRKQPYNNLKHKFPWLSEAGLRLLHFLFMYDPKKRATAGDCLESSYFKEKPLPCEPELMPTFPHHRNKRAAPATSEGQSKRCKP
UniProt O00764, whole entry: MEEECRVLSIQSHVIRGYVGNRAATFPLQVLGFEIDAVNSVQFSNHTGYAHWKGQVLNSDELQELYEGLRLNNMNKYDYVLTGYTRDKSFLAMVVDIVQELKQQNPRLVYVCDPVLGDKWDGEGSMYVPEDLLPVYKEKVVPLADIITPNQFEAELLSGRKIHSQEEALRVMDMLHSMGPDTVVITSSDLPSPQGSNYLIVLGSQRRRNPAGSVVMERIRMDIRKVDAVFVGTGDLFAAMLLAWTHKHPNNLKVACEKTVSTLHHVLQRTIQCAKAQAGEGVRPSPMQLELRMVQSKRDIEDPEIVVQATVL
UniProt Q8TBX8, whole entry: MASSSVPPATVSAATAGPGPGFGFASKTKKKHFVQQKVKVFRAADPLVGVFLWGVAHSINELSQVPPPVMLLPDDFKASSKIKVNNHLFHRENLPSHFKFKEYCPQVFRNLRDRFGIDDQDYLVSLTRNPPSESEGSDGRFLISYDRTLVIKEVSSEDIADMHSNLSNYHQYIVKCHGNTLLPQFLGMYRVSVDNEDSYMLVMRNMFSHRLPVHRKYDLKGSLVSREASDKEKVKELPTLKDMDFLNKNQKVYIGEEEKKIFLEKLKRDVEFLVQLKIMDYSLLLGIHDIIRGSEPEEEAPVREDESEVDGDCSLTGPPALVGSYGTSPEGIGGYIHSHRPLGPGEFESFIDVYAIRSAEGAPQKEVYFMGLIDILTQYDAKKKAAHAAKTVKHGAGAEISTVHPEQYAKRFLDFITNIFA
UniProt P05771, whole entry: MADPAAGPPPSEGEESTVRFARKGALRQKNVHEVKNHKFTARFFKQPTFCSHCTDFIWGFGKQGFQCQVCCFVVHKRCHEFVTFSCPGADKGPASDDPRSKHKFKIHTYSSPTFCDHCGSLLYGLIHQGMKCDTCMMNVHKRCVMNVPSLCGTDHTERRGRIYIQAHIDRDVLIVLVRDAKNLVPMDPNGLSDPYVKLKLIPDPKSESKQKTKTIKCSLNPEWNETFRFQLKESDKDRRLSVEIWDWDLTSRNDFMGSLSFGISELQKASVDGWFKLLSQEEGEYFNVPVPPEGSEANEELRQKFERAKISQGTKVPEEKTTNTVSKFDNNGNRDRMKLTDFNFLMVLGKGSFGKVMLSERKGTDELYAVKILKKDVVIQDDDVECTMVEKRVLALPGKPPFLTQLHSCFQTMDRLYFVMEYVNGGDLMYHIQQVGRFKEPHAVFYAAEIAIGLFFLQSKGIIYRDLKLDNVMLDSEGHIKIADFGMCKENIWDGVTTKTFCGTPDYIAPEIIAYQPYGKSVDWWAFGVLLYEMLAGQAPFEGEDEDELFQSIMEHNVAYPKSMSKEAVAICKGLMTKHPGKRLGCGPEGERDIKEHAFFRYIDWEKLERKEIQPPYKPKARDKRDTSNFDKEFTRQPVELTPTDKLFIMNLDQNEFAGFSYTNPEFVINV
UniProt Q9NSY1, whole entry: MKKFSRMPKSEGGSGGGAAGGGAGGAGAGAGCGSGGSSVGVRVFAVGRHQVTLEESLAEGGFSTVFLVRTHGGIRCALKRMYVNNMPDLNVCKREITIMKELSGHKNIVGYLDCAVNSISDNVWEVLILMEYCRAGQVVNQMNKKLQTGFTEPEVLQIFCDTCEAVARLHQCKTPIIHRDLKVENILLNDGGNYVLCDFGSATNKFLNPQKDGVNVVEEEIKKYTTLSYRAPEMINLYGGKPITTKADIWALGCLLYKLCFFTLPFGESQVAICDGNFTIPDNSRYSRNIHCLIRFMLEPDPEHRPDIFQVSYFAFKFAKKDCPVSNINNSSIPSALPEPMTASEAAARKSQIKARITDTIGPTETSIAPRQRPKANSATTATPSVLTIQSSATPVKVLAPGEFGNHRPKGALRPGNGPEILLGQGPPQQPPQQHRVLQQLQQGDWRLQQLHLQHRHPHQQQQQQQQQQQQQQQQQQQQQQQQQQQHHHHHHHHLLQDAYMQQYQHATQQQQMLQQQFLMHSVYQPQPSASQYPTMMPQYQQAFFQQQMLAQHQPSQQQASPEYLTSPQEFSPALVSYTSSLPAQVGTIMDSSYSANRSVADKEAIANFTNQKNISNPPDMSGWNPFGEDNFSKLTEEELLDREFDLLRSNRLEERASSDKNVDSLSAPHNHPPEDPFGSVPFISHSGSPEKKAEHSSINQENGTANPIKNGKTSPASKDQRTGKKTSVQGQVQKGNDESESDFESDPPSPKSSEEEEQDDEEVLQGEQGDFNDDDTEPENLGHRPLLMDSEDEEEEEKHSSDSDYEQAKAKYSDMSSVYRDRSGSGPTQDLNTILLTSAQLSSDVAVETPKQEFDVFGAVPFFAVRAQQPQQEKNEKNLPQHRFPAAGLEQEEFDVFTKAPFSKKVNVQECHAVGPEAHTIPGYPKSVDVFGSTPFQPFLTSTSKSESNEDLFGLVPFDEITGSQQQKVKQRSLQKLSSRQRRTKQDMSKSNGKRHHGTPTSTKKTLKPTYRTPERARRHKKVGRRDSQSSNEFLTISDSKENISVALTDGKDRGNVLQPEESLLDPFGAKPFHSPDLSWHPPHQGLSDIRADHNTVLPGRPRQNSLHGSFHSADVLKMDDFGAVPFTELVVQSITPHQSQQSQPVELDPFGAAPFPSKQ
UniProt P23443, whole entry: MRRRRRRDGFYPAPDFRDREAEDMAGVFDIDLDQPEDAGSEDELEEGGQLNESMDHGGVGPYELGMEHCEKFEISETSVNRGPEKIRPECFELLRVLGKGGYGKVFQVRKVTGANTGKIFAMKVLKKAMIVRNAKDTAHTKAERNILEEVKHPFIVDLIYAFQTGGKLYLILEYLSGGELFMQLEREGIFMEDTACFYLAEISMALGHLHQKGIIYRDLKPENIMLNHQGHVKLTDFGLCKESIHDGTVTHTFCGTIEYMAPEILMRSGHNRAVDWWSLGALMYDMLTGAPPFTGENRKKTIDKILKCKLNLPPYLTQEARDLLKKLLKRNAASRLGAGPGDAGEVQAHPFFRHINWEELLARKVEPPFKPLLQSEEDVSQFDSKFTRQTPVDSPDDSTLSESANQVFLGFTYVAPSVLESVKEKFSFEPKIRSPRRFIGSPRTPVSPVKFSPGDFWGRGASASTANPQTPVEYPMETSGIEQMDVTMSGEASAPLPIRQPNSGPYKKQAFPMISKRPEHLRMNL
UniProt P16591, whole entry: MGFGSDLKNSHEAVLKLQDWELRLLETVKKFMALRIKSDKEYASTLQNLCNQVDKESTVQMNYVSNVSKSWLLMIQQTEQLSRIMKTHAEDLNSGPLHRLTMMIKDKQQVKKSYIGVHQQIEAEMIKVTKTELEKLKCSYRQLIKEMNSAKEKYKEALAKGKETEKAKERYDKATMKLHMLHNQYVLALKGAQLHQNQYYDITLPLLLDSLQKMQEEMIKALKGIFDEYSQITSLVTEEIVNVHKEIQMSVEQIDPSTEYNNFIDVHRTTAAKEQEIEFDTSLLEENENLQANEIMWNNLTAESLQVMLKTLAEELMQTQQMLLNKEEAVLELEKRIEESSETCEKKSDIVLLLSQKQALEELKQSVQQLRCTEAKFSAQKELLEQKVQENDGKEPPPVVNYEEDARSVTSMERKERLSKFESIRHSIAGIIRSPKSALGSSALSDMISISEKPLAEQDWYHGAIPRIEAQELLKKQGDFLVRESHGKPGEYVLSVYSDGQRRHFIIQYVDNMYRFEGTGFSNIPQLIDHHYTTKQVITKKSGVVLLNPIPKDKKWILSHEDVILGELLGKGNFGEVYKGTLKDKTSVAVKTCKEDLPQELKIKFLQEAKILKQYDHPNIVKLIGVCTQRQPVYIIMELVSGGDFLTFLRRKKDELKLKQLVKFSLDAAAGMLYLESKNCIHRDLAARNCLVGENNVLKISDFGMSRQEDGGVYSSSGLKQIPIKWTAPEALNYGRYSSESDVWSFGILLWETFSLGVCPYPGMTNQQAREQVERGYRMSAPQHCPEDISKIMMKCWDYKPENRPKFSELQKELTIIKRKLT
UniProt P19784, whole entry: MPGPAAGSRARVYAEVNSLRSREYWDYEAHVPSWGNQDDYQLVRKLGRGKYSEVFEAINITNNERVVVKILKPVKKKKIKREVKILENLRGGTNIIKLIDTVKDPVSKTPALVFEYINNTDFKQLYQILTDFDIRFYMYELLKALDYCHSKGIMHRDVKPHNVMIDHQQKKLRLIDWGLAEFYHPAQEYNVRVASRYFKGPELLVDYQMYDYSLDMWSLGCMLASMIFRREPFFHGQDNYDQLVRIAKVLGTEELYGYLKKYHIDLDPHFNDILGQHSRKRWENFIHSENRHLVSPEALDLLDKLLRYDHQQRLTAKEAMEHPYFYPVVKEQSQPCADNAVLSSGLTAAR
UniProt P10398, whole entry: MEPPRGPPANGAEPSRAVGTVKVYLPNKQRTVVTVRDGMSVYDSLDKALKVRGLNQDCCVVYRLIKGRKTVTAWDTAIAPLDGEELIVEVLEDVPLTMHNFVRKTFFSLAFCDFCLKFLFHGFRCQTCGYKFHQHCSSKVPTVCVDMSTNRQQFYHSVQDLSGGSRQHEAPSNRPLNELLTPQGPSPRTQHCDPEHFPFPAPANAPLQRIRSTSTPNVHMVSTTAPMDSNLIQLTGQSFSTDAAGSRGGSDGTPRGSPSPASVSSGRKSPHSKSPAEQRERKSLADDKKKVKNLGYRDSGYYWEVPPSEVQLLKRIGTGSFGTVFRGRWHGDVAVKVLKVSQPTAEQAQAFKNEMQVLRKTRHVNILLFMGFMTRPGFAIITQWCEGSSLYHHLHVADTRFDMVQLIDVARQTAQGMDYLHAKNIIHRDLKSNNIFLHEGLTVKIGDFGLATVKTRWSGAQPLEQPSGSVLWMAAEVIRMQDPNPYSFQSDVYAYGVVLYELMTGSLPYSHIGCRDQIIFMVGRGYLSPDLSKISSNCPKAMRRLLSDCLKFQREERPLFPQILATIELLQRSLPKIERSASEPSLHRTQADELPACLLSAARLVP
UniProt P53350, whole entry: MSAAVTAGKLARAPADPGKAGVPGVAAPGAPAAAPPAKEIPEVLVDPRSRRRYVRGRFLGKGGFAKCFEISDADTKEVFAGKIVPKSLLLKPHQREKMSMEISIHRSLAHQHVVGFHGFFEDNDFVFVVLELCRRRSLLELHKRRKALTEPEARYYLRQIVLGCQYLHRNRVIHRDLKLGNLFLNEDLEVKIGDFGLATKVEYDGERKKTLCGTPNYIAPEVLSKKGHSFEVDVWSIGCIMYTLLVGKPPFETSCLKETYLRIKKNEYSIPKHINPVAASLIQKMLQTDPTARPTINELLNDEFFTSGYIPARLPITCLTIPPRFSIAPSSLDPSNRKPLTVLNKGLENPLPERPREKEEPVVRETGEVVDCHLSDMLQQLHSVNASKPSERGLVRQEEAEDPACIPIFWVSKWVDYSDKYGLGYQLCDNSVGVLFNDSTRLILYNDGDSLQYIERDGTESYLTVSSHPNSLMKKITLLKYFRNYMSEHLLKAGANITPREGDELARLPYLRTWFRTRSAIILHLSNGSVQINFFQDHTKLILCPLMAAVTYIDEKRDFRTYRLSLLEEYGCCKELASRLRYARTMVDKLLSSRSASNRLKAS
UniProt P27707, whole entry: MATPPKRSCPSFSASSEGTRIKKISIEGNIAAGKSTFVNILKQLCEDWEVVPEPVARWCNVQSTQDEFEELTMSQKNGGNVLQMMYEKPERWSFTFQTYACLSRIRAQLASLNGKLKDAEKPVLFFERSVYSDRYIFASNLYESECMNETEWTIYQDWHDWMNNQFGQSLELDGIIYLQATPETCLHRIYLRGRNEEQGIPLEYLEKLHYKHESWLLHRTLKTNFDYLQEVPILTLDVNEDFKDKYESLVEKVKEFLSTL
UniProt Q13557, whole entry: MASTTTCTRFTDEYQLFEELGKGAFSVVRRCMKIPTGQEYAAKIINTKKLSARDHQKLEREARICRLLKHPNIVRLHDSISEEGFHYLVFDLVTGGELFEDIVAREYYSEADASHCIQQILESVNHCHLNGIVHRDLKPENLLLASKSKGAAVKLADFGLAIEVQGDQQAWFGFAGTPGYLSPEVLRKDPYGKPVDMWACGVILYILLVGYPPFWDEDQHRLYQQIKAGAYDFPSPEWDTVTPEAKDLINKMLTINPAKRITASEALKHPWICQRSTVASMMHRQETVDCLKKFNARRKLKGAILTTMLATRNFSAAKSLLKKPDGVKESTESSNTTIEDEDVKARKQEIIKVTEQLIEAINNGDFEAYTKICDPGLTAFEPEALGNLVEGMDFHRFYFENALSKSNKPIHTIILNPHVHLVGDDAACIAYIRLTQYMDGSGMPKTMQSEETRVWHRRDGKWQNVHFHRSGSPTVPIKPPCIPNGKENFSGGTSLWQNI

What was measured:
Test in all cases: KAT chemical proteomics
[1] = biological target: CDK10 (Homo sapiens, UniProt Q15131)
[2] = biological target: TP53RK (Homo sapiens, UniProt Q96S44)
[3] = biological target: CKMT1A (Homo sapiens, UniProt P12532)
[4] = biological target: PDXK (Homo sapiens, UniProt O00764)
[5] = biological target: CDK6 (Homo sapiens, UniProt Q00534)
[6] = biological target: PIP4K2C (Homo sapiens, UniProt Q8TBX8)
[7] = biological target: PRKCB (Homo sapiens, UniProt P05771)
[8] = biological target: BMP2K (Homo sapiens, UniProt Q9NSY1)
[9] = biological target: MARK4 (Homo sapiens, UniProt Q96L34)
[10] = biological target: RPS6KB1 (Homo sapiens, UniProt P23443)
[11] = biological target: DCAKD (Homo sapiens, UniProt Q8WVC6)
[12] = biological target: STK10 (Homo sapiens, UniProt O94804)
[13] = biological target: PRKCH (Homo sapiens, UniProt P24723)
[14] = biological target: FER (Homo sapiens, UniProt P16591)
[15] = biological target: CSNK2A2 (Homo sapiens, UniProt P19784)
[16] = biological target: AKT1 (Homo sapiens, UniProt P31749)
[17] = biological target: AK1 (Homo sapiens, UniProt P00568)
[18] = biological target: ARAF (Homo sapiens, UniProt P10398)
[19] = biological target: STK38L (Homo sapiens, UniProt Q9Y2H1)
[20] = biological target: JAK1 (Homo sapiens, UniProt P23458)
[21] = biological target: PIM3 (Homo sapiens, UniProt Q86V86)
[22] = biological target: KHK (Homo sapiens, UniProt P50053)
[23] = biological target: HCK (Homo sapiens, UniProt P08631)
[24] = biological target: PRKDC (Homo sapiens, UniProt P78527)
[25] = test system: GTF2H4
[26] = biological target: PIK3C2B (Homo sapiens, UniProt O00750)
[27] = biological target: STK4 (Homo sapiens, UniProt Q13043)
[28] = biological target: SIK3 (Homo sapiens, UniProt Q9Y2K2)
[29] = biological target: CDC42BPB (Homo sapiens, UniProt Q9Y5S2)
[30] = biological target: JAK3 (Homo sapiens, UniProt P52333)
[31] = biological target: BMPR1A (Homo sapiens, UniProt P36894)
[32] = biological target: PLK1 (Homo sapiens, UniProt P53350)
[33] = biological target: DCK (Homo sapiens, UniProt P27707)
[34] = biological target: CSNK1E (Homo sapiens, UniProt P49674)
[35] = biological target: TGFBR2 (Homo sapiens, UniProt P37173)
[36] = biological target: FN3K (Homo sapiens, UniProt Q9H479)
[37] = biological target: GK (Homo sapiens, UniProt P32189)
[38] = biological target: CAMK2D (Homo sapiens, UniProt Q13557)
[39] = biological target: ACVR1B (Homo sapiens, UniProt P36896)
[40] = biological target: EPHA6 (Homo sapiens, UniProt Q9UF33)

Measured: RB50

Cc1nc(C(F)(F)F)c2c(C(N)=O)c(N)n(-c3c(C)ccc(O)c3C)c2n1 (single isomer, unassigned)
20.7 nM: [39]
46.6 nM: [31]
>50 µM: all other assays above
